Where two headings read alike, the source gives them in different places.
How the values were obtained:
Assay in all cases: biochemical
Format in all cases: binding
DRB1*0802 = DRB1*0802 (Homo sapiens, UniProt P01903+P01911, A100R/A103L/A169T/F76Y/H45Y/I96F/K41T/L162R/M171V/P40S/Q125H/Q178H/Q39Y/Q99D/R218S/R42G/S66Y/V115G/W38E)
DRB1*0901 = DRB1*0901 (Homo sapiens, UniProt P01903+P01911, A100R/A103E/D57H/D86V/F55Y/F60I/F76Y/I96F/K127E/L162R/M171V/P40D/Q125H/Q99R/R33Q/R42F/S133A/S66N/T210M/V115G/W38K/Y107V/Y59G/Y89S)
DRB1*0101 = DRB1*0101 (Homo sapiens, UniProt P01903+P01911, A100R/D57E/F55L/F60I/F76Y/I96L/L162R/M171V/P40L/Q125E/R42F/V115G/Y59C)
DRB1*0701 = DRB1*0701 (Homo sapiens, UniProt P01903+P01911, A100R/A102G/A103Q/D57E/D86V/E43K/F76Y/K127E/L162R/M171V/P40G/Q125H/Q99D/R33Q/R42Y/R54Q/S133A/S66F/T210M/V115G/Y107V/Y59L/Y89S)
DRB1*1302 = DRB1*1302 (Homo sapiens, UniProt P01903+P01911, A100E/A169T/K41T/L162R/M171V/P40S/Q125H/Q178H/Q39Y/Q99D/R42S/S66N/T262R/V115G/W38E/Y61H)
DRB1*1501 = DRB1*1501 (Homo sapiens, UniProt P01903+P01911)
DRB1*1101 = DRB1*1101 (Homo sapiens, UniProt P01903+P01911, A100R/A169T/A87E/I96F/K41T/L162R/M171V/P40S/Q125H/Q178H/Q39Y/Q99D/R42S/S66Y/T262R/V115G/W38E)
DRB1*0404 = DRB1*0404 (Homo sapiens, UniProt P01903+P01911, A100R/A169T/F76Y/I96L/K127E/L162R/M171V/N62H/P40V/Q125Y/R42H/S133A/S149N/S66Y/V209L/W38E)
DRB1*0405 = DRB1*0405 (Homo sapiens, UniProt P01903+P01911, A100R/A169T/D86S/F76Y/I96L/K127E/L162R/M171V/N62H/P40V/Q125Y/R42H/S133A/S149N/S66Y/V115G/V209L/W38E)
DRB1*0401 = DRB1*0401 (Homo sapiens, UniProt P01903+P01911, A100K/A169T/F76Y/I96L/K127E/L162R/M171V/N62H/P40V/Q125Y/R42H/S133A/S149N/S66Y/V115G/V209L/W38E)
DRB1*0301 = DRB1*0301 (Homo sapiens, UniProt P01903+P01911, A100K/A102G/A103R/A169T/F55Y/I96L/K41T/L162R/M171V/P40S/Q125H/Q178H/Q39Y/R42S/S66N/T106N/T262R/W38E/Y61H)
[1] = competitive inhibition of radiolabeled standard peptide, DRB1*0901, read-out: Binding Affinity (nM) DRB1*0901
[2] = competitive inhibition of radiolabeled standard peptide, DRB1*1302, read-out: Binding Affinity (nM) DRB1*1302
[3] = read-out: Binding Affinity (nM) DRB1*0405
[4] = read-out: Binding Affinity (nM) DRB1*1302

Row | Structure (SMILES) | IC50 (DRB1*0802) | IC50 (DRB1*0901; [1]) | IC50 (DRB1*0101) | IC50 (DRB1*0701) | IC50 (DRB1*1302; [2]) | IC50 (DRB1*1501) | IC50 (DRB1*1101) | IC50 (DRB1*0404) | IC50 (DRB1*0405; [3]) | IC50 (DRB1*0401) | IC50 (DRB1*0301) | IC50 (DRB1*0901) | IC50 (DRB1*0701; read-out: Binding Affinity (nM) DRB1*0701) | IC50 (DRB1*1302) | IC50 (DRB1*0405) | IC50 (DRB1*1302; [4]) | IC50 (DRB1*0404; read-out: Binding Affinity (nM) DRB1*0404)
1 | CC[C@H](C)[C@H](NC(=O)[C@@H](NC(=O)[C@H](CC(=O)O)NC(=O)[C@H](CCSC)NC(=O)[C@@H](NC(=O)[C@@H](NC(=O)CNC(=O)[C@H](CCCCN)NC(=O)[C@@H]1CCCN1C(=O)[C@@H](NC(=O)[C@@H]1CCCN1C(=O)[C@H](CCCNC(=N)N)NC(=O)[C@H](CCC(N)=O)NC(=O)[C@@H](NC(=O)[C@H](CCCCN)NC(=O)[C@@H](NC(=O)[C@@H](N)C(C)C)C(C)C)C(C)C)[C@@H](C)O)[C@@H](C)O)C(C)C)[C@@H](C)CC)C(=O)O [NS5 576-592] | 1170 nM | 13000 nM | 1330 nM | 4540 nM | 297 nM | 1510 nM | 1210 nM | 9190 nM | > 20000 nM | 3780 nM | 5250 nM |  |  |  |  |  | 
2 | CC[C@H](C)[C@H](NC(=O)[C@H](CC(=O)O)NC(=O)[C@H](CCSC)NC(=O)[C@@H](NC(=O)[C@@H](NC(=O)CNC(=O)[C@H](CCCCN)NC(=O)[C@@H]1CCCN1C(=O)[C@@H](NC(=O)[C@@H]1CCCN1)[C@@H](C)O)[C@@H](C)O)C(C)C)C(=O)N[C@H](C(=O)N[C@@H](CO)C(=O)N[C@@H](CCCNC(=N)N)C(=O)N[C@@H](CCCCN)C(=O)N[C@@H](CC(=O)O)C(=O)N[C@@H](CCC(N)=O)C(=O)N[C@@H](CCCNC(=N)N)C(=O)O)[C@@H](C)CC [NS5 582-598] | 1840 nM |  | 312 nM |  |  | 4680 nM | 106 nM | 9770 nM |  | 160 nM | 1170 nM | 5860 nM | > 20000 nM | 1640 nM | 807 nM |  | 
3 | CC[C@H](C)[C@H](NC(=O)[C@@H](N)CCCCN)C(=O)N[C@H](C(=O)N[C@@H](CCC(N)=O)C(=O)N[C@@H](Cc1c[nH]c2ccccc12)C(=O)N[C@@H](CC(C)C)C(=O)N[C@@H](CCC(=O)O)C(=O)N[C@H](C(=O)N[C@@H](CCCCN)C(=O)NCC(=O)N[C@H](C(=O)N[C@@H](CCC(=O)O)C(=O)N[C@@H](CCCNC(=N)N)C(=O)N[C@@H](CC(C)C)C(=O)N[C@@H](CCCCN)C(=O)N[C@@H](CCCNC(=N)N)C(=O)N[C@@H](CCSC)C(=O)O)C(C)C)[C@@H](C)O)[C@@H](C)O [NS5 642-658] | 1500 nM |  | 166 nM | 24 nM |  | 59 nM | 665 nM |  | > 20000 nM | 6300 nM | 775 nM | 2430 nM |  |  |  | > 20000 nM | > 20000 nM
4 | CC[C@H](C)[C@H](NC(=O)[C@H](C)NC(=O)[C@@H](N)CCSC)C(=O)N[C@@H](CO)C(=O)NCC(=O)N[C@@H](CC(=O)O)C(=O)N[C@@H](CC(=O)O)C(=O)N[C@@H](CS)C(=O)N[C@H](C(=O)N[C@H](C(=O)N[C@@H](CCCCN)C(=O)N1CCC[C@H]1C(=O)N[C@H](C(=O)N[C@@H](CC(=O)O)C(=O)N[C@@H](CC(=O)O)C(=O)N[C@@H](CCCNC(=N)N)C(=O)N[C@@H](Cc1ccccc1)C(=O)O)[C@@H](C)CC)C(C)C)C(C)C [NS5 658-674] | 453 nM |  | 6910 nM | 2770 nM |  | 6690 nM | 7320 nM | 6340 nM |  | 8600 nM | 2680 nM | 12200 nM |  |  | 2270 nM | > 20000 nM | 
5 | CC[C@H](C)[C@H](NC(=O)[C@H](CC(C)C)NC(=O)[C@H](CCC(=O)O)NC(=O)[C@@H](N)Cc1c[nH]cn1)C(=O)N[C@@H](CCSC)C(=O)N[C@@H](CCCCN)C(=O)N[C@@H](CC(=O)O)C(=O)NCC(=O)N[C@@H](CCCNC(=N)N)C(=O)N[C@@H](CCCCN)C(=O)N[C@@H](CC(C)C)C(=O)N[C@H](C(=O)N[C@H](C(=O)N1CCC[C@H]1C(=O)N[C@@H](CS)C(=O)N[C@@H](CCCNC(=N)N)C(=O)O)C(C)C)C(C)C [NS5 714-729] | 2290 nM | 690 nM | 15 nM | 2850 nM | 11 nM | 66 nM | 671 nM | 14100 nM | > 20000 nM | 6950 nM | 37 nM |  |  |  |  |  | 
